# From article PMC9467883
# What was measured:
# [1] = molecular target: Human Trio SR6-GEF1 (human) (UniProt O75962)
substance,measurement,setting,value
Human Rac1 (from UniProt P63000 1-192) (natural protein),catalytic efficiency kcat/KM of nucleotide exchange on Rac1,Human Trio GEF1 (human),19000 M⁻¹ s⁻¹
same,"kobs of exchange of BODIPY-FL-GDP for GTP on Rac1, 100 nM GEF1",Human Trio GEF1 (human),0.0024 s⁻¹
same,catalytic efficiency kcat/KM of nucleotide exchange on Rac1,[1],3100 M⁻¹ s⁻¹
same,"kobs of exchange of BODIPY-FL-GDP for GTP on Rac1, 100 nM SR6-GEF1",[1],0.00012 s⁻¹
